## AlphaSeq binding of Ab-14 light chain variants to a spike HR2 peptide

Reference: Li et al. 2023, doi:10.1038/s41467-023-39022-2. File: FLAb, binding data.

All variants were tested on one target, the spike HR2 peptide PDVDLGDISGINAS (SARS-CoV-2).

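The variants were designed computationally from a first round of random CDR variants and then made and measured. Group labels follow the data file (Ctrl: baseline library sampled from a position-specific scoring matrix, with some repeated check sequences; En: ensemble of fine-tuned language models; GP: Gaussian process model; HC: hill climbing; Gen: genetic algorithm; Gibbs: Gibbs sampling; a sequence that several methods proposed may carry one label only). AlphaSeq pools MATa yeast showing the antibodies with MATalpha yeast showing the peptide. The frequency of each diploid, read from paired DNA barcodes, reflects how well the two displayed proteins bind. The ratio of observed to expected reads was calibrated, replicate by replicate, on BCL2-family standards whose Kd was known from biolayer interferometry. There are six technical replicates.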

Ab-14 is the parent antibody, in scFv form: VH, then three GGGGS repeats, then VL. The heavy chain is unchanged in all variants.
VH: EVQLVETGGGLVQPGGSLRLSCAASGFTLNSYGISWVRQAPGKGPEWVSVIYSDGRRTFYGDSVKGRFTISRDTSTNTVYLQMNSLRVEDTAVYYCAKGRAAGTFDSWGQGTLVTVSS
VL: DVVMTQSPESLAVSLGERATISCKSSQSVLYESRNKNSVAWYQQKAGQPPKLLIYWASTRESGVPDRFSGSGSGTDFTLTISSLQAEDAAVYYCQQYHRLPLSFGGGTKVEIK

Each variant is given by its three light chain CDRs, as the data file delimits them; those of the parent are KSSQSVLYESRNKNSVA, WASTRES, QQYHRLPLS.
Numbers give log10(Kd / nM), so 0 is 1 nM and 3 is 1 µM. Smaller is tighter.
A mean of the replicates is given; it leaves out those without a signal.
"nd" marks a missing value. The strain was present, yet no cells mated with the target were sequenced in that replicate, which points to weak or no binding.
Entries are sorted by rising average, undetected variants last.
As a blank, each scFv also met three strains without target: over all light chain designs, 4% of these pairings were detected, typically at 2.64 and seldom below 1.59.

CDR-L1	CDR-L2	CDR-L3	group	log10 Kd, replicates	mean, log10 nM
KLQQSWLYESRNKNNVA	NASQRES	QQYHRLPLS	GP_Gen	-0.57 -0.50 -0.70 -0.79 -0.57 -0.50	-0.60
KSSQSWLYESRNKNSVA	NASFRES	QQYHRLPLS	GP_HC	-0.49 -0.57 -0.49 -0.44 -0.61 -0.44	-0.51
KLSMSVLYESRNKNSVA	NASQRES	QQYHRLPLS	GP_Gen	-0.21 -0.45 -0.34 -0.45 -0.43 -0.25	-0.35
KLSQSELYESRNKNSVA	NASQREQ	QQYHRLPLS	GP_Gen	-0.11 -0.22 -0.46 -0.41 -0.48 -0.29	-0.33
KLSQSVLYESRNKNSVA	DASQRES	QQYHRLPLS	GP_Gen	0.66 -0.35 -0.34 -1.01 -0.23 -0.66	-0.32
KVSQSGLYEQRNKNSVA	EASTRES	QQYHRLPLS	GP_Gen	-0.21 -0.29 -0.40 -0.40 -0.42 -0.17	-0.31
KVSQAVLYESRNKNSVA	DASTRES	QQYHRLPLS	GP_Gen	-0.21 -0.33 -0.37 -0.49 -0.31 -0.15	-0.31
KLAQSVAMTSHHINSVA	QSTTREE	QQYNRLPLS	En_HC	-0.25 -0.09 -0.38 0.07 -0.37 -0.20	-0.20
KLSQSVLYESRNKNSVA	NASQRED	QQYHRLPLS	GP_Gen	-0.12 -0.23 -0.26 -0.27 -0.33 0.04	-0.19
KVSGSVLYESRNKNSVA	NASTRES	QQYHRLPLS	GP_Gen	-0.14 -0.33 -0.23 -0.26 -0.14 -0.05	-0.19
KLSTSVMLESRNVNSVA	DASTRSE	QQYHRLPLS	GP_Gibbs	-0.08 -0.12 -0.35 -0.15 -0.09 -0.02	-0.14
KLSQSELYESRAKNSVA	NASTRES	QQYHRLPLS	GP_Gen	-0.12 -0.05 0.02 -0.29 -0.11 0.12	-0.07
KLTMMYQHTSKNKNNIA	ERSTREE	QQYHHLPLS	En_HC	0.05 -0.19 -0.15 -0.08 -0.15 0.12	-0.07
KLSSVIGTEKVHGNNVA	EMATRER	QQYNRLPLS	En_Gen	0.25 -0.13 -0.12 0.00 -0.31 0.00	-0.05
KLSQSMDYESRNKNSVA	NASQRES	QQYHRLPLS	GP_Gen	0.01 -0.15 0.02 -0.18 -0.08 0.09	-0.05
KLQQSVDYESRNKNAVA	NASTREQ	QQYHQLPLS	GP_Gibbs	-0.13 -0.01 -0.03 -0.09 0.00 -0.04	-0.05
KSSQSVLYESRNKNSVA	DASTREH	QQYHRLPLS	Ctrl	-0.01 -0.13 -0.01 -0.01 0.17 0.20	0.03
KLSQSPLYESRNKNSVA	NASTRES	QQYHRLPLS	GP_Gen	0.08 0.23 0.04 -0.08 -0.11 0.05	0.04
KLSQSQLYESRNKNSVA	EASHREH	QQYHRLPLS	GP_Gibbs	0.10 -0.08 0.10 -0.16 0.04 0.24	0.04
KLLQSELYESRNKNSVA	NASTRES	QQYHRLPLS	GP_Gen	0.05 -0.13 0.29 -0.12 -0.05 0.45	0.08
KWSISDLQGDRNKNSVA	NASCREQ	QQYHRLPLS	GP_Gibbs	0.19 0.14 0.11 -0.07 0.04 0.10	0.09
KFTQWTFSQNRDDNSIA	HADEVVR	QQYDRFPLT	En_Gibbs	nd nd nd nd nd 0.13	0.13
KFVQSDDYESRNKNNVA	QASQREQ	QQYHRLPLS	GP_Gibbs	0.27 0.26 0.20 -0.01 0.10 0.33	0.19
KWSCSQLYDSANKNSVA	NAQTRMM	QQYHRLPLS	GP_Gibbs	0.27 0.09 0.10 0.14 0.29 0.54	0.24
KFSQKVLYEGRTKNSVA	NASTRES	QQYHRLPLS	GP_HC	0.22 0.24 0.26 0.16 0.14 0.45	0.24
KLSQSVEYESRNKNSVA	DAQTRQS	QQYHRLPLS	GP_Gibbs	0.60 0.32 0.35 0.33 -0.05 0.23	0.30
KFGQSVLMGSTVRNSVA	QQSTREN	QQYDRLPLS	En_HC	0.62 0.43 0.38 -0.07 0.31 0.17	0.31
KQQQSALGEERNFNSVA	HASTRES	QQYHRLPLS	GP_Gibbs	0.94 0.18 0.29 0.32 0.09 0.41	0.37
KSSISTLYESRNTNSVA	EASTRES	QQYHRLPLS	GP_HC	0.17 0.40 0.42 0.12 0.69 0.50	0.38
TISQVMNTLSRQGNNVA	DLQNRED	QQYFRLPLS	En_Gen	0.76 0.53 0.15 0.25 0.55 0.43	0.44
KLYQSNKYESRMKNSVA	NASQREQ	QQYHRLPLS	GP_Gibbs	0.51 0.54 0.37 0.48 0.42 0.60	0.48
KISQMFYYESINKNSVA	QKSTREE	QDYHRLPLS	En_HC	0.89 0.42 0.47 0.38 0.41 0.55	0.52
KLSATYRYETQNKNSIA	EMTTRES	QCYHRLPLS	En_HC	0.53 0.89 0.43 0.56 0.29 0.55	0.54
KSSQSFLYESRNKNSVA	GASTRES	QTYHRLPLS	GP_HC	0.53 0.31 0.96 0.81 0.99 0.65	0.71
KSSQSVLYLSLNKNSVA	DASTRES	QQYHRLPLS	Ctrl	0.62 0.84 0.78 0.74 0.50 1.15	0.77
MIGGVTNGISSNKNSVA	EQSTRES	QQYNRLPLS	En_HC	1.05 0.79 0.61 0.68 0.78 1.02	0.82
KIGHTLNTLYEKANNVA	DLVEREN	QQYFRLPLS	En_Gen	0.83 0.81 1.14 0.54 0.94 1.07	0.89
KLRQVTGYESYLRNSVA	QTSTRAE	QDYHRLPLS	En_HC	1.40 1.20 1.04 1.25 0.81 0.83	1.09
QMYPFEVAIGEGTNNVA	HVSVRAL	QQYERLPLV	En_Gibbs	1.38 1.13 1.10 1.06 1.04 1.22	1.15
TLYGLSMSMAKNKNNVA	EMTTREK	QQYDRLPLV	En_Gen	1.63 1.05 1.85 1.27 0.83 1.05	1.28
KSSISHLYESRNKNSVA	EASTREQ	QQYHRLPLS	GP_HC	nd nd nd 1.34 nd nd	1.34
KSSQSVLNESRNDNSVA	SASTREA	QQYHRLPLS	Ctrl	0.87 1.18 0.93 2.75 0.73 1.60	1.34
KITDDELTEGNDRNNIA	HNNVAED	QQYQQLPLV	En_Gibbs	1.59 0.88 1.67 1.58 2.18 1.25	1.52
MISQLMNMGQFAINSVA	QASIRNH	QQYDRLPLI	En_Gen	1.56 1.60 2.11 2.20 2.02 1.83	1.89
MFDQMDKQQGMNTNNVA	GVEISRI	QQYSRLPFS	En_Gibbs	nd 1.72 1.71 1.49 2.81 2.01	1.95
MISQLYNMGQFAINSVA	QASIRNE	QQYDRLPLI	En_Gen	1.54 1.55 1.69 3.16 1.77 2.09	1.97
KLSISYLFESLEKNSIA	ENSTREN	QHYHRLPLS	En_HC	nd 2.08 nd nd nd 1.93	2.00
HLSLRLSYGNMLQKAVA	EVQARVT	QQYARLPLL	En_Gibbs	nd nd nd nd nd 2.06	2.06
KLGGEQQNSTYEKDNVA	DVNTTIE	QHYSRLPLT	En_Gibbs	nd 2.38 1.95 2.24 2.89 1.98	2.29
KLSGVMASSKFAKDNVA	ENNTRED	QQYDRLPLS	En_Gen	nd 2.22 nd 2.57 2.45 2.52	2.44
KSSQSVLNESRNTNSVA	WASTRES	QQPHRLPLS	Ctrl	nd nd nd nd nd nd	nd

Extract of 6 entries:

CDR-L1,CDR-L2,CDR-L3,group,"log10 Kd, replicates","mean, log10 nM"
KFTQWTFSQNRDDNSIA,HADEVVR,QQYDRFPLT,En_Gibbs,nd nd nd nd nd 0.13,0.13
KSSQSVLNESRNTNSVA,WASTRES,QQPHRLPLS,Ctrl,nd nd nd nd nd nd,nd
KLSSVIGTEKVHGNNVA,EMATRER,QQYNRLPLS,En_Gen,0.25 -0.13 -0.12 0.00 -0.31 0.00,-0.05
KLTMMYQHTSKNKNNIA,ERSTREE,QQYHHLPLS,En_HC,0.05 -0.19 -0.15 -0.08 -0.15 0.12,-0.07
KLQQSWLYESRNKNNVA,NASQRES,QQYHRLPLS,GP_Gen,-0.57 -0.50 -0.70 -0.79 -0.57 -0.50,-0.60
KLSQSELYESRAKNSVA,NASTRES,QQYHRLPLS,GP_Gen,-0.12 -0.05 0.02 -0.29 -0.11 0.12,-0.07

In the paper, a design with two or fewer of six values counts as a poor binder.
The range of this assay differs from that of the first round, and the authors advise against merging the two.
Of ten entries with the parent sequence, four were seen in most replicates (averages 0.34 to 2.37), three in one and three in none, so single entries are noisy.